Measured values taken from patent publication US20090023646A1, “GHRH analogues” (Centre Hospitalier de L'Universite de Montreal (CHUM), priority 2002, published 2009).

Experiments:
[1] = molecular target: T1, human GHRH receptor (Homo sapiens, UniProt Q02643); assay: Competitive 125I-GHRH binding assay in BHK cell membrane preparations expressing the human GHRH receptor; conditions: Table 7; mean±SEM of 3 experiments (analogue) or 2 experiments (hGHRH(1-44)NH2) in triplicate
T1 construct: expressed in transfected cells; host or cells: BHK (baby hamster kidney) 570 cells
T1 sequence (Q02643 23-423): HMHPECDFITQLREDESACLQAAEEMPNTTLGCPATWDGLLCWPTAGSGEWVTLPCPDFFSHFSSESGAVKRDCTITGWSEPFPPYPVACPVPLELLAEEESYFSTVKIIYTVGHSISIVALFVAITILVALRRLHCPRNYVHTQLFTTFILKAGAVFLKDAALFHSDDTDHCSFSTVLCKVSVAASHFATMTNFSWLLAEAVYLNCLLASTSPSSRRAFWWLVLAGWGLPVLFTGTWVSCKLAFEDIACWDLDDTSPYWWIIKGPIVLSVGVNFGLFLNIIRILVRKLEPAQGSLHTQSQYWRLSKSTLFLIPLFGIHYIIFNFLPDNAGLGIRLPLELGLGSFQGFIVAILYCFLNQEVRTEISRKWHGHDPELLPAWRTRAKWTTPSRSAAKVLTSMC
Description: ^125I-GHRH binding assay was performed as previously described (Boulanger L, et al. (1999) Neuroendocrinology 70: 117-127), using [^125I-Tyr^10]hGHRH(1-44)NH2 as radioligand. Competition experiments were done in BHK (baby hamster kidney) 570 cell membrane preparations (25 μg of protein/assay tube) with increasing concentrations (0-1000 nM) of human(h)GHRH(1-29)NH2, hGHRH(1-44)NH2 or GHRH analogues, in a total volume of 300 μl 50 mM Tris-acetate buffer (pH 7.4), containing 5 mM MgCl2, 5 mM EDTA and 0.42% BSA. Non specific binding was determined in presence of 1 μM hGHRH(1-29)NH2. Incubation was carried out at equilibrium (23° C., 60 min) and stopped by centrifugation (12,000 g, 5 min, at 4° C.). The radioactivity content in pellets was determined by gamma counting. The affinity of hGHRH(1-29) NH2 was tested in each experiment to assess the validity of the assay and determine the relative affinity of the analogues. The Ligand computerized program was used to analyze competition curves of GHRH analogues reported in Tables 2 and 3 and to determine their IC50 (Gaudreau P. et al. (1992) J Med Chem, 35: 1864-1869).
Values represent the mean±SEM of 3 experiments performed in triplicate for the analogues and the mean±SEM of 2 experiments performed in triplicate for hGHRH(1-44) NH2. […]

[2] = In vitro proteolysis assay in human plasma

hGHRH(1-44)NH2
IC50 [1]: 5.2 ± 3.4 pM
Mean residual amount ([2]; incubation time 0 min): 100%
Mean residual amount ([2]; incubation time 180 min): 31%
Mean residual amount ([2]; incubation time 420 min): 3%
